Source: publication PMC4540457

Tests used:
[1] = biological target: δ-opioid receptor-Gi1α (C^351I) fusion protein
[2] = biological target: δ-opioid receptor-Gi1α (C^351I) fusion protein; remark: listed apart in the source
[3] = biological target: δ-opioid receptor-Gi1α (C^351I) fusion protein; remark: listed apart in the source
[4] = biological target: δ-opioid receptor-Gi1α (C^351I) fusion protein; remark: listed apart in the source

DADLE [Enkephalin (2-D-Alanine-5-D-Leucine)] (peptide)
EC50 of DADLE-stimulated [^35S]GTPγS binding, 0.025% Brij-58-treated LDM, PTX-treated cells [1]: 280 nM
EC50 of DADLE-stimulated [^35S]GTPγS binding, LDM (no detergent), PTX-treated cells [1]: 28 nM
EC50 of DADLE-stimulated [^32P]GTPase, 0.025% Brij-58-treated LDM, PTX-untreated cells [2]: 421 nM
EC50 of DADLE-stimulated [^32P]GTPase, post-nuclear supernatant (PNS), PTX-untreated cells [2]: 35.3 nM
EC50 of DADLE-stimulated [^35S]GTPγS binding, Percoll-purified PM exposed to 0.006% Brij-58, 30°C [3]: 120 nM
EC50 of DADLE-stimulated [^35S]GTPγS binding, Percoll-purified PM, no detergent, 30°C [3]: 24 nM
EC50 of DADLE-stimulated [^35S]GTPγS binding, 0.025% Brij-58-treated LDM, PTX-untreated cells [4]: 81.5 nM
EC50 of DADLE-stimulated [^35S]GTPγS binding, post-nuclear supernatant (PNS), PTX-untreated cells [4]: 19.1 nM
